Assay [1] addresses T1, human A3 receptors (CHO-hA3 membrane preparation) (Homo sapiens, UniProt P0DMS8). The assay is described as follows: Human adenosine A3 receptor binding in the presence of the radioactive iodine-containing compound of Example 2/a. The note with it: radioligand of Example 2/a, 4 μg CHO-hA3 preparation, Cheng-Prusoff from IC50; read-out: Ki, the radioligand given in Example 2/a.

Chains of the proteins cited; added tags and fusions are not shown.
UniProt P0DMS8, whole entry: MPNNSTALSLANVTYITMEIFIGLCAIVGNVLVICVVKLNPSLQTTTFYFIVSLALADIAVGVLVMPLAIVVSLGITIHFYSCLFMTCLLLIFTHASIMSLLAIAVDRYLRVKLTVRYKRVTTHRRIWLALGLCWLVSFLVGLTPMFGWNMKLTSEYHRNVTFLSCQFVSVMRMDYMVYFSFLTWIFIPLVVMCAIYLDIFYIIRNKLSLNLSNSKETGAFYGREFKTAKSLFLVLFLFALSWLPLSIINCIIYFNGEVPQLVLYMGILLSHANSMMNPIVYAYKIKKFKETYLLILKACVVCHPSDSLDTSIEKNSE

The target in assay [2] is T1, human A3 receptors (CHO-hA3 membrane preparation). The assay is described as follows: Human adenosine A3 receptor binding in the presence of [125I]AB-MECA. The note with it: radioligand [125I]AB-MECA, 4 μg CHO-hA3 preparation, Cheng-Prusoff from IC50.

For `C[C@H](Cc1ccccc1)Nc1ncnc2c1ncn2[C@@H]1O[C@H](CO)[C@@H](O)[C@H]1O` [R-PIA, N^6-[L-2-phenylisopropyl]adenosine, reference compound], the Ki turned out to be 150 nM in assay [1] and 65 nM in assay [2].

The values are drawn from patent US7964731B2, “Isotopically marked quinoline derivatives as adenosin A3 receptor ligands” (Sanofi-Aventis, priority 2004, dated 2011).
